Rows were chosen to be rich in hits. Some 2.1% of all compounds tested hit in one or more screens of this group.
miR-122 sensor – miR-122 Renilla sensor signal increase in Huh7, primary screen, miR-122 inhibitor project, cell-based, single point, plate reader. Huh7 miR-122 Renilla luciferase sensor, 48 h; neutral wells = 0, positive control = 100. activation (reporter increase), % at 12.5 µM. 340,000 compounds, 0.3% hits;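 active = mean replicate activation score at least 90 and every replicate individually at or above 90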;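 also: higher luciferase means less miR-122 activity so hits act as miR-122 inhibitors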
UUG fidelity – modulators of yeast start codon fidelity, primary screen, whole organism, S. cerevisiae, single point, plate reader | S. cerevisiae UUG-firefly luciferase reporter, luminescence/redox ratio | activity score, % at 18.7 µM | hit rate 0.13% among 350,000;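 active = replicate mean at a twofold rise or more, about +100% in these data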;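 note: firefly luciferase made from a UUG start codon reports start codon fidelity; reporter light over untreated wells divided by growth signal over untreated wells; some hits fall short of that in this replicate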
PGC1a acetyl inh – inhibitors of PGC1a acetylation signal, primary screen, cell-based, U2OS, AlphaScreen, inhibitor mode; AlphaScreen anti-acetyl-lysine; with virally co-expressed GCN5 acetyltransferase; inhibition, % at 15.6 µM; AID 651687, 2012; 350,000 compounds, 0.17% hits;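 active = every replicate shows inhibition of at least 40%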
MITF TRPM1 inh – inhibitors of MITF-dependent TRPM1 promoter reporter, primary screen, cell-based, SK-MEL-5, single point, luciferase. inhibition, % at 12.5 µM. AID 488899, 2010. 330,000 compounds, 0.83% hits. SK-MEL-5 TRPM1 promoter luciferase, 24 h;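 active = mean inhibition across replicates of 60% or more, whatever share of single replicates reaches that level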
Wnt act – Wnt/beta-catenin pathway activators, primary screen, cell-based, plate reader, single point; 300,000 compounds, 1.2% hits; activation, % at 9.35 µM; Wnt/beta-catenin reporter cell assay, activator; in the data active = activation above about 30%, passing the limit was not always enough
MITF TRPM1 HTS – activators of MITF-driven TRPM1 promoter reporter, primary screen, cell-based, SK-MEL-5, luciferase, single point | 300,000 compounds, 0.75% hits | activation, % at 12.5 µM | SK-MEL-5 TRPM1-promoter luciferase, 24 h; % of positive control, neutral wells = 0;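 active = mean activation of at least 80% with every replicate also reaching 80%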
A number is an active result.

`CCn1c2ccccc2c2cc(/C=N/n3cn[nH]c3=S)ccc21` gave miR-122 sensor inactive, UUG fidelity inactive, PGC1a acetyl inh 42 and MITF TRPM1 inh inactive.
`CCn1c2ccccc2c2cc(/C=N/n3cnnc3)ccc21` gave miR-122 sensor inactive, UUG fidelity inactive, PGC1a acetyl inh inactive, MITF TRPM1 inh inactive and MITF TRPM1 HTS inactive.
O=c1c(Br)ccc(Br)cc1Br was read as miR-122 sensor inactive, UUG fidelity inactive, MITF TRPM1 inh 102, Wnt act inactive and MITF TRPM1 HTS inactive.
Screening O=C1CN(S(=O)(=O)c2cc(Br)ccc2Br)CCN1 returned miR-122 sensor inactive, UUG fidelity inactive, PGC1a acetyl inh inactive and Wnt act inactive.
`O=C(CSCc1ccccc1)Nc1cccc(F)c1` gave MITF TRPM1 inh inactive, Wnt act 63 and MITF TRPM1 HTS 95.
For O=c1c(Cl)c(N2CCCCC2)cnn1-c1nc2ccccc2[nH]1 the results were miR-122 sensor inactive, UUG fidelity inactive, PGC1a acetyl inh inactive and MITF TRPM1 inh 64.
`Clc1ccc2nc(N3CCCCC3)[nH]c2c1` gave miR-122 sensor inactive, UUG fidelity inactive, PGC1a acetyl inh inactive, MITF TRPM1 inh inactive and MITF TRPM1 HTS inactive.
O=c1c2ccccc2cnn1-c1nc2ccccc2[nH]1 was read as MITF TRPM1 inh 93, Wnt act inactive and MITF TRPM1 HTS inactive.
For COc1ccc2c3c([nH]c2c1)[C@@H](CO)N(C(=O)Nc1ccc(F)cc1)CC31CCN(S(C)(=O)=O)CC1 the results were PGC1a acetyl inh inactive.
Screening CO[C@@H]1CN(C)C(=O)c2ccc(NC(=O)C3CCCC3)cc2OC[C@@H](C)NC[C@@H]1C returned miR-122 sensor inactive and UUG fidelity inactive.
For CNC(=S)N/N=C/c1c(C)nn(-c2ccccc2)c1Cl the results were miR-122 sensor inactive, PGC1a acetyl inh inactive, MITF TRPM1 inh inactive and MITF TRPM1 HTS inactive.
`Cc1nn(-c2ccccc2)c(Cl)c1/C=N/NC(=O)OC(C)(C)C` gave miR-122 sensor inactive, UUG fidelity inactive, PGC1a acetyl inh inactive, MITF TRPM1 inh inactive, Wnt act 34 and MITF TRPM1 HTS inactive.
For N/C(=N\OC(=O)Cc1cccs1)c1ccc(Cl)cc1 the results were miR-122 sensor inactive, UUG fidelity inactive, PGC1a acetyl inh inactive, MITF TRPM1 inh inactive, Wnt act 34 and MITF TRPM1 HTS inactive.
For Cc1ccc(C(=O)O/N=C(\N)Cc2cccs2)c(Cl)c1 the results were UUG fidelity inactive, MITF TRPM1 inh inactive and MITF TRPM1 HTS 117.
For N/C(=N\OC(=O)Cc1cccs1)c1cccc([N+](=O)[O-])c1 the results were miR-122 sensor inactive, PGC1a acetyl inh inactive, MITF TRPM1 inh inactive, Wnt act inactive and MITF TRPM1 HTS inactive.
`Cc1ccc(/C(N)=N/OC(=O)Cc2cccs2)cc1` gave miR-122 sensor inactive, UUG fidelity inactive, PGC1a acetyl inh inactive, MITF TRPM1 inh inactive and MITF TRPM1 HTS 111.
Cc1cccc(/C(N)=N/OC(=O)Cc2cccs2)c1 was read as miR-122 sensor inactive, UUG fidelity inactive, PGC1a acetyl inh inactive, MITF TRPM1 inh inactive and MITF TRPM1 HTS 95.
`N/C(=N\OC(=O)Cc1cccs1)c1ccccc1` gave miR-122 sensor inactive, UUG fidelity inactive, PGC1a acetyl inh inactive and MITF TRPM1 inh inactive.
O=C(O)C[C@H]1C[C@@H]2c3cc(NC(=O)Nc4ccc(F)cc4)ccc3O[C@@H]2[C@@H](CO)O1 was read as miR-122 sensor inactive, UUG fidelity inactive and PGC1a acetyl inh inactive.
`C[C@H]1CN([C@@H](C)CO)C(=O)c2cc(-c3ccncc3)cnc2O[C@H]1CN(C)C(=O)c1ccncc1` gave miR-122 sensor inactive, UUG fidelity inactive and PGC1a acetyl inh inactive.
Screening COc1ccc(NC(=O)Nc2ccc3c(c2)[C@@H]2C[C@@H](CC(=O)N(C)C)O[C@@H](CO)[C@@H]2O3)cc1 returned miR-122 sensor inactive, UUG fidelity inactive and PGC1a acetyl inh inactive.
`CCCC#Cc1ccc2c(c1)O[C@@H](CN(C)C(=O)c1ccccc1)[C@H](C)CN([C@H](C)CO)S2(=O)=O` gave miR-122 sensor inactive, UUG fidelity inactive and PGC1a acetyl inh inactive.
